Results: patent US5679805A, “Photochromic spironaphthopyran compounds” (Vision-Ease Lens, Inc., priority 1995, dated 1997)

Assay: maximum absorption wavelength of chloroform-dissolved photochromic compounds irradiated with ultraviolet light
Assay type: physicochemical
Conditions: maximum wavelength of 350 nanometers

maximum absorption wavelength λmax: 472
Compound: COc1ccc2c3c(ccc2c1)OC(c1ccccc1)(c1ccccc1)C=C3 [Comparative Example 1, 3,3-diphenyl-8-methoxy-3H-naphtho[2,1-b]pyran, reference compound]
